Experimental data as given in US6989148B2, “Treatment of diabetes” (priority 1994, dated 2006).

Assays:
[1] = 50 μg GLIP subcutaneously; FIG. 6 Panel E
normal volunteers = assay: Sustacal meal preceded by subcutaneous GLIP injection in normal volunteers (Example 4); assay type: in vivo, human
Method: 7 normal volunteers were studied after ingestion of a Sustacal meal either alone or immediately preceded by a subcutaneous injection of 1.00 μg GLIP.
Results are shown in FIG. 4. *indicates statistically significant differences between treatments (p<0.05).

Glucagon-like peptide 1(7-36)amide [GLIP]
time for GLIP to be cleared from the blood [1]: about two
delay in increase in blood levels (glucose, HPP, C-peptide, insulin) relative to first dose (normal volunteers; 50 μg dose of GLIP): proportionally shorter
delay in increase in blood levels (glucose, HPP, C-peptide, insulin) relative to first dose (normal volunteers; 200 μg dose of GLIP): longer delays
